Patent EP0801527B1 (priority 1995, dated 1996)

The chains behind the UniProt entries cited, without tags or fusion partners. Residues count along the entry.
UniProt P09483, 31-630: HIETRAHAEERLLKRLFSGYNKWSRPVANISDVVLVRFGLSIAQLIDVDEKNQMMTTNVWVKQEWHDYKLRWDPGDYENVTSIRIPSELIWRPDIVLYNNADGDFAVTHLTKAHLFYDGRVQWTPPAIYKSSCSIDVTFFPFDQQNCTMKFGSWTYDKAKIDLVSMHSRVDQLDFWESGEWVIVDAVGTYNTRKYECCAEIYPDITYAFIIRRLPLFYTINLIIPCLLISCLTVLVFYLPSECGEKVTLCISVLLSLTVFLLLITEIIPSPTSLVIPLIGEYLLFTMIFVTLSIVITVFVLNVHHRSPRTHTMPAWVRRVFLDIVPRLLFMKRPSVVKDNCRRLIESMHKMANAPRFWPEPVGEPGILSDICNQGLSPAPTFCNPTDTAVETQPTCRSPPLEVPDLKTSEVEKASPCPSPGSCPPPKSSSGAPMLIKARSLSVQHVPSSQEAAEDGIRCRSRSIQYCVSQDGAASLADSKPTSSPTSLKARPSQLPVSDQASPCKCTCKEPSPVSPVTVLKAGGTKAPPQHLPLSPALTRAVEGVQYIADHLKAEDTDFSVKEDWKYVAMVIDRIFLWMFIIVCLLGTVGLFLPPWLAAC
UniProt P12390, 25-500: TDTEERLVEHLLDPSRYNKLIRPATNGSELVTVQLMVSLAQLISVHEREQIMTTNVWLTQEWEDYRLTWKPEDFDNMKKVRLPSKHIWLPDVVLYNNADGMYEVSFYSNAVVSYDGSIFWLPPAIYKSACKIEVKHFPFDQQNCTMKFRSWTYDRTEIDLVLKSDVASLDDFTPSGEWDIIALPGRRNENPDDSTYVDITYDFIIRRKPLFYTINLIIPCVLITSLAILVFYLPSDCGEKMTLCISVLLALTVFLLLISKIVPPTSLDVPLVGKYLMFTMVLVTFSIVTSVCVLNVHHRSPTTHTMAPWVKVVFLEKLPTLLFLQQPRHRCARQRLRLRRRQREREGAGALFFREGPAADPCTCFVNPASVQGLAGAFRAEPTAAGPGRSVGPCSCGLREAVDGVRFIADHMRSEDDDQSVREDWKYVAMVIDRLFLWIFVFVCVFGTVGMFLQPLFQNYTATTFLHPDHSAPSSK

What follows are compounds tested against T1, high affinity CNS nicotinic receptors (Rattus norvegicus, UniProt P09483+P12390) (assay: biochemical).
T1 construct: Brain membrane preparations were obtained from brain tissue of either males or females; from tissue; host or cells: rat (Sprague-Dawley) brain without cerebellum, membrane preparation
Format: binding, Rats (Sprague-Dawley)
In the case of `CNCC/C=C/c1ccc(C)nc1` [Sample No. 6, (E)-N-methyl-4-[3-(6-methylpyrindin)yl]-3-butene-1-amine], the Ki is reported as 176 nM. With `NCC/C=C/c1cncnc1` [Sample No. 1, (E)-4-(5-pyrimidinyl)-3-butene-1-amine monofumarate] the Ki was 269 nM. `CNCC/C=C/c1cncnc1` [Sample No. 2, (E)-N-methyl-4-(5-pyrimidinyl)-3-butene-1-amine] gave a Ki of 86 nM. In the case of `COc1cncc(/C=C/CCN)c1` [Sample No. 3, (E)-4-[3-(5-methoxypyridin)yl] -3-butene-1-amine monofumarate], the Ki is reported as 22 nM.
